AlphaSeq binding of Ab-14 heavy chain variants to a spike HR2 peptide

Source: Engelhart et al. 2022 (doi:10.1038/s41597-022-01779-4), MIT Lincoln Laboratory and A-Alpha Bio; data file from the FLAb repository.

All variants were tested on one target, the spike HR2 peptide PDVDLGDISGINAS (SARS-CoV-2).

Each scFv is VH, a 15-residue (Gly4Ser)3 linker, VL, as in the parent Ab-14, and differs from it in the CDRs of the heavy chain only.
VH: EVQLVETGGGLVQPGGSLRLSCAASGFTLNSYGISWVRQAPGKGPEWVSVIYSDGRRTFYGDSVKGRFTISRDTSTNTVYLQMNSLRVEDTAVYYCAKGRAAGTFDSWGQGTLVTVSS
VL: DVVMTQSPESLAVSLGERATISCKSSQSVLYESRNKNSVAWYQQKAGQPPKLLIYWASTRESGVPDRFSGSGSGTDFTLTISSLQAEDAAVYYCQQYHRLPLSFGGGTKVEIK

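Phage display of a naive human antibody library on the peptide gave the parent. In library AAYL49, one, two or three CDR residues were substituted; doubles and triples were drawn at random. The scFvs were displayed on barcoded MATa yeast, the peptide on MATalpha yeast. Pairs that bind mate more often; barcode pairs of the diploids are counted by sequencing. A regression on co-assayed BCL2-family reference pairs converts the normalised counts of each replicate to an apparent Kd. Mating was done three times.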

Positions count from residue 1 of the parent VH; I51V puts V in place of I.
All variants listed here change I51 of the VH, counted from its first residue.
The read-out is the apparent dissociation constant on a log10 scale (nM): the lower, the stronger.
Replicates are averaged; those with no signal do not enter the mean.
"ND" means that the variant was in the library but no mating with the target was seen in that replicate; the authors take this as a sign of poor binding, and no number exists.

The variant I51V S63Q T104G showed ND, ND, ND (controls 1 of 9). With V50W I51S S107A the result was ND, ND, ND (controls 0 of 9). With I51K the result was ND, ND, ND (controls 1 of 9). For S31G Y32V I51A, the assay gave 6.25, 3.87, ND (mean 5.06; controls 5 of 9). With I51W D54G G55S the result was ND, 3.20, ND (controls 1 of 9).

With I51G K65G S107P the result was ND, ND, ND (controls 0 of 9). For I34G I51A D54R, the assay gave ND, 4.39, ND (controls 1 of 9). The variant I51T V64E D106S showed ND, ND, 4.23 (controls 1 of 9). The variant I51W S53V K65L showed ND, ND, ND (controls 1 of 9). The variant I51Y S53Q G99V showed 3.61, ND, 4.10 (mean 3.85; controls 0 of 9).

The variant G33T I51Q gave ND, ND, ND (controls 0 of 9). With I51A T58P S63M the result was ND, ND, ND (controls 0 of 9). For L29K I51D D54N, the assay gave ND, ND, ND (controls 0 of 9). The variant I51E Y52G V64P showed ND, ND, ND (controls 0 of 9). The variant N30R I51Y D54E gave ND, ND, ND (controls 0 of 9).

For S35D I51Q D62C, the assay gave ND, 4.66, ND (controls 1 of 9). With I51P F59W V64S the result was ND, ND, ND (controls 1 of 9). The variant G33R I51D T104K showed ND, ND, ND (controls 0 of 9). With Y32Q I51E Y60S the result was ND, ND, ND (controls 0 of 9). With I51F G99Q the result was ND, 2.69, ND (controls 0 of 9).

The variant I51H G103W D106G gave ND, ND, ND (controls 0 of 9). With S35N I51Q S107M the result was 2.38, ND, ND (controls 0 of 9). The variant I34F I51L S63T gave ND, ND, ND (controls 0 of 9). The variant S31I I51Q showed ND, ND, ND (controls 0 of 9). With I51C T58L G99H the result was 4.68, 4.05, ND (mean 4.36; controls 5 of 9).

The variant I51N D54K D106T gave ND, ND, ND (controls 1 of 9). With I51K G55R A101W the result was ND, ND, ND (controls 0 of 9). For Y32C I51Q A102W, the assay gave 4.12, ND, ND (controls 3 of 9). The variant I51H R57I S63D gave ND, 3.58, ND (controls 1 of 9). The variant T28F I51W G99R gave ND, ND, ND (controls 0 of 9).

The variant N30A I51Q gave ND, ND, ND (controls 1 of 9). The variant G33T I51L D54Y gave ND, ND, ND (controls 0 of 9). The variant T28F I51Q R56Y gave ND, ND, ND (controls 0 of 9). With T28S I51Q D62V the result was 4.98, ND, ND (controls 1 of 9). With I34Q I51H G61A the result was ND, 4.01, ND (controls 0 of 9).

The variant I51R D106V showed ND, ND, ND (controls 1 of 9). For G26I I51L, the assay gave ND, ND, 3.35 (controls 1 of 9). With F27N I34K I51D the result was ND, ND, ND (controls 2 of 9). The variant I34R I51K G99W gave ND, ND, ND (controls 1 of 9). The variant I51D gave ND, ND, 4.42 (controls 1 of 9).

With I51F Y60C G61V the result was ND, ND, ND (controls 1 of 9). With G33E I51E V64C the result was ND, ND, ND (controls 1 of 9). The variant N30L I51G D62Y showed 4.89, 4.63, ND (mean 4.76; controls 2 of 9). For I51D R56D A101P, the assay gave ND, ND, ND (controls 1 of 9). The variant I51F F59H Y60V showed ND, ND, ND (controls 2 of 9).

With I51S D62K V64E the result was ND, 4.70, ND (controls 2 of 9). For I51M S53F D106V, the assay gave ND, ND, ND (controls 0 of 9). The variant I51T S63R F105V gave 3.70, 3.64, ND (mean 3.67; controls 7 of 9). The variant G33C I51H Y52H gave ND, ND, ND (controls 3 of 9).

In this assay the parent's reference entry averaged 0.65; its copy inside this library read 4.11 (one replicate of three).
As a blank, each scFv also met three strains without target: over library AAYL49, 15% of these pairings were detected, typically at 4.06 and seldom below 2.83. The control count says in how many pairings with the empty strains this scFv gave a signal.